Measurements: patent US11286299B2, “Peptides selective for Bcl-2 family proteins” (Massachusetts Institute of Technology, priority 2018, dated 2022)

Sequences of proteins named here, by UniProt entry; tags and fusion partners are left off. Residues count along the entry.
UniProt Q07820, 172-327: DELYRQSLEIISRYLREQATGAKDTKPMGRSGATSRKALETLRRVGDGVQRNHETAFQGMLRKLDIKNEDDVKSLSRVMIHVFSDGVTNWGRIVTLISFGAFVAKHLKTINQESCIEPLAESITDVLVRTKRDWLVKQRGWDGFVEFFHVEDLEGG

How the values were obtained:
[1] = tested on: Bfl-1, Mcl-1, Bcl-xL, Bcl-w, and Bcl-2
Mcl-1 = Mcl-1 (Homo sapiens, UniProt Q07820); assay: Yeast cell-surface display binding (FACS titration); set-up: Mcl-1 residues 172-327; made in house; host or cells: E. coli; conditions: dTERMen designs
From the text: (§1) Protein constructs Anti-apoptotic protein constructs used in this work correspond to human Bcl-xL residues 1-209, Mcl-1 residues 172-327 and Bfl-1 residues 1-151, expressed in E. coli and purified as described by Dutta et al. (45).
(§2) Cells were filtered and washed 2× in chilled BSS before resuspending the labeled cells in BSS and using a BD FACSAria flow cytometer or a BD FACSCanto and FACSDiva software for cell sorting or analysis.
(§3) Crystals were flash frozen in liquid nitrogen.

Bfl-1 = target: T1, Bfl-1 (Homo sapiens, UniProt Q16548); assay: as above; set-up: Bfl-1 residues 1-151; made in house; host or cells: E. coli; conditions: dTERMen designs
T1 sequence (Q16548 1-151): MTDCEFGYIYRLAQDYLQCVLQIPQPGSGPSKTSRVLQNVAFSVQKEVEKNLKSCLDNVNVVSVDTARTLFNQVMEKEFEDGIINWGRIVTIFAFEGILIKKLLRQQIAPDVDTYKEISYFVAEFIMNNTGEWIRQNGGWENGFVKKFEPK
From the text: as §1, §2, §3

| Sequence | binding to target Mcl-1 (Mcl-1) | selectivity among Bcl-2 family members [1] | binding to target Bfl-1 (Bfl-1) | further results |
| --- | --- | --- | --- | --- |
| APYLEQVARTLLHIGMEINEALR [dM6] | did not bind to their targets with high affinity |  |  | binding to any Bcl-2 family member tested [1]: not binding to any of the Bcl-2 family members we tested |
| APKEKEVAETLRKIGEEINEALK [dM1] | bound tightly to their targets | selective |  |  |
| SLLEKLAEYLRQMADEINKKYVK [dF4] |  |  | bound tightly to their targets |  |
| APKEKEVARTLIKIGEEINEALK [dM5] |  | selective |  |  |
| SYIDKIADLIRKVAEEINSKLE [dF2] |  | highly Bfl-1 selective |  |  |
| SYVDKIADLMKKVAEKINSDLT [dF5] |  | highly Bfl-1 selective |  |  |
| SYIDKIADLIDKVVEEINSKLE [dF6] |  |  | did not bind to their targets with high affinity |  |
| SYVDKIADVMREVAEKINSDLT [dF1] |  | highly Bfl-1 selective | bound tightly to their targets |  |
| DKTLEEIARELLKLALEIDKEI [dM7] | bound tightly to their targets |  |  |  |
